In patent US20180296537A1, “METHODS AND COMPOSITIONS FOR DIAGNOSING, TREATING, AND MONITORING TREATMENT OF SHANK3 DEFICIENCY ASSOCIATED DISORDERS” (Novartis AG, priority 2015, published 2018):

Test system: Akt
Assay: Western blot of Akt phosphorylation in rat primary cortical neurons (Shank3 knock down vs control)
Assay type: cell-based
Details: pre-treatment with Akti
Source text: E18 primary rat cortical neurons were dissected, cultured and infected 6 days after plating (DIV6) with indicated lentiviruses at MOI 10, as previously described (Proenca et al., 2013). Lentiviruses were produced by calcium phosphate transfection of HEK293T cells with packaging plasmids (Life Technologies) and transfer plasmid in 10 cm dishes. Cells were transferred to fresh medium 6 hrs. post-transfection. Four days post-transfection, the cell medium was collected and pooled from several dishes, cleared of cellular debris by 0.45 μm filtration, and concentrated 100× by centrifugation at 19,000 g for 90 min in a Beckman Ultracentrifuge using a SW28/SW32 rotor. Pellets were suspended in PBS/0.5% BSA and viral titer was determined by ELISA quantification of viral p24 antigen (Zeptometrix Corp, USA). For shRNA plasmid generation, oligonucleotides were annealed and ligated into lentiviral transfer plasmid pLKO.1-GFP vector at the AgeI/EcoRI sites. The target sequences of shRNAs that target rat and mouse Shank3 (5′-3′) are: […] […] (SEQ ID NO: 2), and […] (SEQ ID NO: 3). The latter was previously reported (Verpelli et al., 2011). A luciferase-targeting sequence was used as an shRNA control: […] (SEQ ID NO: 4). […]

In the case of O=c1[nH]c2ccccc2n1C1CCN(Cc2ccc(-c3nc4cc5[nH]cnc5cc4nc3-c3ccccc3)cc2)CC1 [Akti], the “BDNF-induced Akt phosphorylation” value is reported as “blocked BDNF-induced Akt phosphorylation in primary neurons”.
